# Measured values published in PubChem BioAssay AID622 (Vanderbilt High Throughput Screening Facility, 2007).
# Sequences of proteins named here, by UniProt entry; tags and fusion partners are left off. A change or cut given only in a name is not applied to a line headed by its entry.
# UniProt P62483: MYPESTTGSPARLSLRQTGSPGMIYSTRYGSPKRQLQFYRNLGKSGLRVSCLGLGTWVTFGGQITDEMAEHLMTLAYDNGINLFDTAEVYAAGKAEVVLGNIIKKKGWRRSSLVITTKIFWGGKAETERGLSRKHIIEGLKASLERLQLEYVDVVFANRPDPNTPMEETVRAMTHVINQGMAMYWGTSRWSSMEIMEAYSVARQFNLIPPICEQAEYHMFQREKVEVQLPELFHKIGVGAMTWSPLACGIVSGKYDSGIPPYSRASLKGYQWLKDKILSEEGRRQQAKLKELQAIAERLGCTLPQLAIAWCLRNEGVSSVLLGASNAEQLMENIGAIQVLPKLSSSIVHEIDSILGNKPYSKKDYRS
# Only a part is listed here, and it is no random draw. The source made the active and inactive calls.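 How the source made its calls: active means fluorescence slope higher than the sample average by over 3 SD (cut at about -0.22 in these data, passing the limit was not always enough); inactive means the rest.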
# Target: Voltage-gated potassium channel subunit beta-2 (Rattus norvegicus) (UniProt P62483)
# Assay: KvBeta enzyme negative modulators, primary screen, biochemical, NADPH fluorescence (AID 622);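 further: slope of raw intensity against log time taken from 70 to 1610 s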
# Settings: recombinant KvBeta, 4-cyanobenzaldehyde reduction, at 10 µM, active compounds read high
row,Structure (SMILES),fluorescence slope
1,O=P(Nc1nccs1)(c1ccccc1)c1ccccc1,inactive: -0.597
2,Cc1nn(-c2ccccc2)c2c1P(=O)(N1CCOCC1)N(C)C(c1ccccc1)=N2 (configuration not stated),inactive: -0.579
3,Cc1ccc(OCC(=O)OC2CN3CCC2CC3)cc1 (configuration not stated),inactive: -0.384
4,Cc1cccc(OCC(=O)OC2CN3CCC2CC3)c1 (configuration not stated),inactive: -0.451
5,CCOP1(=S)c2c(C)nn(CCC#N)c2N=C(c2ccccc2F)N1C (configuration not stated),inactive: -0.495
6,O=C(COc1ccccc1)OC1CN2CCC1CC2 (configuration not stated),inactive: -0.576
7,COP1(=S)c2c(C)nn(CCC#N)c2N=C(c2ccc(F)cc2)N1C (configuration not stated),inactive: -0.577
